Earlier results as cited in publication PMC7617969, “Carboxylic Acid Bioisosteres Boost Nurr1 Agonist Selectivity” (Journal of medicinal chemistry, 2025).
Like-named read-outs stand apart in the source and are kept apart here.

Protein sequences, listed by entry. Tags and fused reporters are not part of them. Residues count along the entry.
UniProt P43354, 360-595 limits assumed: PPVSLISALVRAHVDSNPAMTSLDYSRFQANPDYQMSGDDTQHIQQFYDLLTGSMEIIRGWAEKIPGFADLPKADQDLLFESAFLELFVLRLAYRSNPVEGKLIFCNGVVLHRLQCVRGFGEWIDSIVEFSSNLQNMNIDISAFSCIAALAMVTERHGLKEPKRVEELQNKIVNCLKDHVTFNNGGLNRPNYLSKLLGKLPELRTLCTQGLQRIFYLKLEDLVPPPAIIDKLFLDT

Biological target: T1, Nurr1 (Homo sapiens, UniProt P43354)
T1 construct: expressed in transfected cells; host or cells: HEK293T
Settings: cited from earlier work; for max. activation (Nurr1): Gal4-Nurr1 hybrid reporter gene assay; for efficacy_NR4A2: supplementary csv

SMILES | max. activation (Nurr1) (listed as 7 (vidofludimus)) | efficacy_NR4A2 [%] | max. activation (Nurr1) [fold]
COc1cccc(-c2ccc(NC(=O)C3=C(C(=O)O)CCC3)c(F)c2)c1 [compound 7, vidofludimus] | (0.4±0.2-μM) (3.1±0.4-fold) | 310 | 
[2H]C([2H])([2H])Oc1cccc(-c2ccc(NC(=O)C3=C(C(=O)O)CCC3)c(F)c2)c1 [compound 9] |  | 260 | 2.6±0.1
